Measurements as given in patent US7842488B2, “Polynucleotides encoding a human 3-phosphoinositide- dependent protein kinase” (Medical Research Council, priority 1997, dated 2010).

By UniProt entry, the sequences of proteins in these tests, tags left out. Where a name states a change or a piece, a line headed by the entry shows the natural chain unless it says otherwise.
UniProt P31749: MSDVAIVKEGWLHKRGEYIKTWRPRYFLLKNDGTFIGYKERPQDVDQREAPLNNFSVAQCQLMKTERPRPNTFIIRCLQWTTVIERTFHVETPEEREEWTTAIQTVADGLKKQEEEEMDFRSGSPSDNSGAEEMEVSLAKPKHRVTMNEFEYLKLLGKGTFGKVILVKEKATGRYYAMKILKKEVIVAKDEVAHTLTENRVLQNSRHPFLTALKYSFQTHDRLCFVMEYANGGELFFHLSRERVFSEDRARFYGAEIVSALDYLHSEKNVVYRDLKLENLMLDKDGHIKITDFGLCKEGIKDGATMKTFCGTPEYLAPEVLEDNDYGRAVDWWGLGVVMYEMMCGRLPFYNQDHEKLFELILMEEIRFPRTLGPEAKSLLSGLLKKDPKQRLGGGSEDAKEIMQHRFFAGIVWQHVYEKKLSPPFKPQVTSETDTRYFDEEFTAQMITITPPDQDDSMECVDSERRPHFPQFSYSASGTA

Molecular target: T1, GST-PKBα (Homo sapiens, UniProt P31749)
T1 construct: generate a full length cDNA encoding the PKBα gene; made in house; host or cells: human embryonic kidney 293 cells (pEBG2T), serum starved
Assay: Activity of PDK1 preparations towards GST-PKBα
Assay type: biochemical
Settings: in the presence of PtdIns(3,4,5)P3
Method: Assay of PDK1. The assay was carried out in two stages; in the first, GST-PKBα was incubated with PDK1 in the presence of MgATP and phospholipid vesicles to permit activation of GST-PKBα.
[…]. After 10 min at 30° C., the reactions were terminated by spotting the reaction mixture on to p81 phosphocellulose paper. The papers were washed in phosphoric acid and analysed as described previously. A control reaction in which GST-PKBα was omitted was taken as the blank and was always less than 5% of the activity measured in the presence of GST-PKBα. The basal GST-PKBα activity is the activity measured in the absence of PDK1. […].
Phosphorylation of GST-PKB ? by PDK1. The incubations were identical to the Stage 1 described above except that [γ^32P] ATP (200-400 cpm/pmol) was used instead of unlabelled ATP. The reactions were terminated by making the solution 1% (by mass) in SDS. The samples were run on a 7.5% SDS-polyacrylamide gel and, after staining with Coomassie blue, the gels were autoradiographed. The Coomassie blue-staining bands corresponding to GST-PKBα were excised and the ^32P-radioactivity associated with each band was quantified.
Assay of GST-PDK1 and GST-DSTPK61 activity. GST-PDK1 and GST-DSTPK61 were diluted appropriately in Buffer B containing 1 mg/ml bovine serum albumin, and assayed for their ability to activate and phosphorylate GST-PKBα [21]. […]. […]

## GST-PDK1 (residues 1 to 556): full length human PDK1 GST fusion expressed in 293 cells
  specific activity towards GST-PKBα: 89 000 U/mg
